Calls of active or inactive are those of the source. The rule behind the calls is not given here.
Tested on: in vivo angiogenesis, blood vessel count
Test: angiogenesis inhibition in living animals, in vivo study, HTS (AID 732);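 note: zebrafish embryos dosed at one day post fertilization; 0% = reference inhibitor and 100% = plate mean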
Conditions: active compounds read low;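 tested at 30 µM in the well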

## N#[O+].[C-]#N.[C-]#N.[C-]#N.[C-]#N.[C-]#N.[Fe+2].[Na+].[Na+]
  vessel count % control: inactive: 77%

— PubChem BioAssay AID732 (Emory University Molecular Libraries Screening Center, 2007)
